Measurements from ChEMBL document CHEMBL1130721, “Design and synthesis of novel conformationally restricted HIV protease inhibitors” (Bioorg Med Chem Lett, 1998).
pKi: −log10 of the molar value.

Target: Human immunodeficiency virus type 1 protease (Human immunodeficiency virus 1, UniProt Q72874)
Test: Compound was assayed for inhibition against HIV protease activity

Work on `CC(C)CN(C[C@@H](O)[C@H](Cc1ccccc1)NC(=O)O[C@H]1CCOC1)S(=O)(=O)c1ccc(N)cc1` [AMPRENAVIR] yielded a pKi of 9.22.
